The list shows a part of the results, in another mix than the full data. Inconclusive results are not listed. Calls of active or inactive are those of the source. Calls come from the whole dose curve.
What follows are molecules tested against Snurportin-1 (Homo sapiens) + GTP-binding nuclear protein Ran (Homo sapiens) + Importin subunit beta-1 (Homo sapiens) (UniProt O95149+P62826+Q14974) (assay: qHTS Assay for Inhibitors of RanGTP induced Rango (Ran-regulated importin-beta cargo) - Importin beta complex dissociation). Details: Biochemical FRET Rango-importin beta; at 46.1 µM (top of the series).
Note: % of control where 0% means no effect; nearly all actives have a fitted effect of over 45% in size.

SMILES | activity change, negative = inhibition
O=C(OC1CN2CCC1CC2)c1ccc(Cl)cc1 (stereo not drawn) | inactive: -17.1%
CCOC(=O)c1ccc(NP(C)(=O)Oc2cc(C)cc(C)c2)cc1 (stereo not drawn) | inactive: 12%
Cc1cccc(OCC(=O)OC2CN3CCC2CC3)c1 (stereo not drawn) | inactive: 1.7%
O=[As](O)(c1cccc(O)c1)c1cccc(O)c1 | inactive: -8.67%
Cc1cc(C)cc(OP(C)(=O)Nc2ccc(C)cc2C)c1 (stereo not drawn) | inactive: 5.91%
Cc1ccc(C)c(NP(C)(=O)Oc2ccccc2)c1 (stereo not drawn) | inactive: -15.7%
CCCOP(=S)(Nc1nc(N)cc(=O)[nH]1)OCCC | inactive: -11.6%
Cc1cc(C)cc(OP(C)(=O)Nc2ccccn2)c1 (stereo not drawn) | inactive: 6.49%
CP(=O)(Nc1cccc(Br)c1)Oc1ccccc1 (stereo not drawn) | inactive: -3.97%
Cc1ccc(NCCc2c([N+](=O)[O-])cc([N+](=O)[O-])cc2[N+](=O)[O-])cc1 | inactive: 0.0189%
Nc1cccc2c([As](=O)(O)O)cccc12 | inactive: -4%
CCOP(=O)(Nc1cccc2ccccc12)OCC | inactive: 5.88%
CCOP1(=S)c2c(C)nn(CCC#N)c2N=C(c2ccccc2F)N1C (stereo not drawn) | inactive: -10.4%
O=P(Nc1nccs1)(Oc1ccccc1)Oc1ccccc1 | inactive: -4.64%
O=P(Nc1nccs1)(c1ccccc1)c1nc2ccccc2s1 (stereo not drawn) | inactive: -10.7%
Nc1ccccc1[As](=O)(O)c1ccccc1 | inactive: 1%
O=C(O)COc1ccc([As](=O)(O)O)cc1[N+](=O)[O-] | inactive: 10.4%
NC(=O)Nc1ccc([As](=O)(O)O)cc1 | inactive: 1.26%
O=[N+]([O-])c1ccc2c(c1)nnn2O | inactive: -2.24%
CN(C)C(=O)c1cc([N+](=O)[O-])cc2c1-c1c(cc([N+](=O)[O-])cc1[N+](=O)[O-])C2=O | inactive: 11.1%
CC1=NCCc2c1[nH]c1ccccc21.O=[N+]([O-])c1cc([N+](=O)[O-])c(O)c([N+](=O)[O-])c1 | inactive: -4.12%
CN(C(=O)Cc1ccc(Cl)c(Cl)c1)[C@H]1CC[C@@]2(CCCO2)C[C@@H]1N1CCCC1 | inactive: -5.85%
N#CCCN(C(=O)COC(=O)C(O)(c1ccccc1)c1ccccc1)c1ccc(F)cc1 | inactive: -18.7%
CCOP1(=S)c2c(C)nn(CCC#N)c2N=C(c2ccc(F)cc2)N1C (stereo not drawn) | inactive: 8.75%

SMILES | activity change, negative = inhibition
CN(C(=O)Cc1ccccc1)[C@@H]1CC[C@]2(CCCO2)C[C@H]1N1CCCC1 | inactive: 0.0673%
CCNC(=S)/N=C(\N)N[N+](=O)[O-] | inactive: 7.4%
O=C(NC1CCS(=O)(=O)C1)NP(=S)(Oc1ccccc1)Oc1ccccc1 (stereo not drawn) | inactive: 7.47%
c1ccc(-c2nn[nH]n2)c(-c2nn[nH]n2)c1 | inactive: -5.43%
Cc1ccc(NP(=O)(Oc2cccc(C)c2)Oc2cccc(C)c2)nc1 | inactive: 12.8%
O=P1(N(CCCl)CCCl)OCCC2CCCCN21 (stereo not drawn) | inactive: -1.09%
CCOC(=O)c1ccc(NP(C)(=O)Oc2ccc(F)cc2)cc1 (stereo not drawn) | inactive: -8.27%
COc1ccc(OP(C)(=O)Nc2ccc(SC(F)(F)F)cc2)cc1 (stereo not drawn) | inactive: 6.4%
Cc1c([N+](=O)[O-])cc([N+](=O)[O-])c(Br)c1[N+](=O)[O-] | inactive: 12.9%
COC(=O)c1cc2c(s1)N=C(c1ccccc1)N(C)P2(=O)N1CCOCC1 (stereo not drawn) | inactive: -10.3%
CC(=O)NC(SC(=S)N(CC(C)C)CC(C)C)C(Cl)(Cl)Cl (stereo not drawn) | inactive: 7.05%
Cc1ccc(OP(=O)(Nc2ccccn2)Oc2ccc(C)cc2)cc1 | inactive: 8.77%
O=C(OC1CN2CCC1CC2)c1ccccc1 (stereo not drawn) | inactive: -12.4%
CCN(CC)CCCOC(=O)C(O)(c1ccccc1)C1CCCCC1 (stereo not drawn) | inactive: -2.99%
CCC(=O)N1C2C3N(C(=O)CC)C1C1N(C(=O)CC)C(C(N1C(=O)CC)N3C(=O)CC)N2C(=O)CC | inactive: -3.51%
CP(=O)(Nc1ccccc1)Oc1ccc(F)cc1 (stereo not drawn) | inactive: 25%
CC(NC(=O)COC(=O)C(O)(c1ccccc1)c1ccccc1)c1ccccc1 (stereo not drawn) | inactive: -11%
Cc1ccccc1OP(=O)(Nc1ccccn1)Oc1ccccc1C | inactive: 0.175%
CCCCCOc1ccc(NP(C)(=O)Oc2ccc(Cl)cc2Cl)cc1 (stereo not drawn) | inactive: 0.46%
O=c1c2cc([N+](=O)[O-])ccc2[nH]c2c([N+](=O)[O-])cc([N+](=O)[O-])cc12 | inactive: 40%
CN(C)C(=O)Oc1noc2ccccc12 | inactive: 18.4%
O=P1(Nc2nc3ccc(Cl)cc3s2)COc2ccccc2O1 (stereo not drawn) | inactive: -0.319%
CCOc1ccc(C2=NCC(CBr)S2)cc1 (stereo not drawn) | inactive: 2.55%
CCc1cc(O)c([N+](=O)[O-])c(C)c1[N+](=O)[O-] | inactive: 2.56%
